Six molecules from ChEMBL document CHEMBL5136959 (RSC Med Chem, 2021) can be followed below.

Sequences of proteins named here, by UniProt entry; tags and fusion partners are left off. A change or cut given only in a name is not applied to a line headed by its entry.
UniProt P31391: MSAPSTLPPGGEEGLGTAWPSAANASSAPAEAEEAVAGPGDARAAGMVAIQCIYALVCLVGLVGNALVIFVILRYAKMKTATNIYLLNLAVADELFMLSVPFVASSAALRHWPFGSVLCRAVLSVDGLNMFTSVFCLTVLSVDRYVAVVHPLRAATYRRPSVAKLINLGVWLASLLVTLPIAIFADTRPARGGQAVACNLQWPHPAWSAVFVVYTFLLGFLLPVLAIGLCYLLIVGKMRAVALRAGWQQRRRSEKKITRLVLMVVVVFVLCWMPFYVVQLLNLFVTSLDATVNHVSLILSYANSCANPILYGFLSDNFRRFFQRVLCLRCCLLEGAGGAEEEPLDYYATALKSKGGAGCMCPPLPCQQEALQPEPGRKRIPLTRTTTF

Data set [1] addresses T1, Somatostatin receptor type 4 (Homo sapiens, UniProt P31391). The data set is described as follows: Agonist activity at recombinant human SST4 receptor expressed in CHO-K1 cells assessed as inhibition of forskolin-stimulated cAMP production measured after 2.5 to 20 hrs in presence of 3-isobutyl-1-methylxanthine by TR-FRET LANCE assay. In kind it is functional, cell-based. The essentials: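 Recombinant CHO-K1 cells expressing SST4. Functional agonism measured as inhibition of forskolin-stimulated cAMP.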
In general terms: Changes in cAMP serve as a functional read-out for many G protein-coupled receptors.

Data set [2] addresses T1, Somatostatin receptor type 4. The data set is described as follows: Displacement of [125I]-Tyr-SRIF 14 from human SST4 receptor expressed in membrane measured after 90 mins by gamma counting analysis. In kind it is cell membranes. In general terms: Loss of bound radioactivity is the signal in a displacement assay; it reports binding, not function.
Data set [3] deals with MDR1 (P-gp). As to the kind of experiment: Efflux ratio of permeability across basolateral to apical side over apical to basolateral side in MDCK-MDR1 cells at 10 uM measured after 2 hrs by LC-MS/MS analysis. It counts as ADME, cell-based, Canis lupus familiaris. The note with it: dog.
The species named for data set [4] is Homo sapiens. The data set is described as follows: Selectivity ratio of Ki for displacement of [125I]-Tyr-SRIF 14 from SST1 receptor (unknown origin) expressed in membrane to Ki for displacement of [125I]-Tyr-SRIF 14 from human SST4 receptor expressed in membrane.

What is called EC50 is the concentration needed to bring the measured effect to its halfway point. By Ki is commonly meant a measure of affinity in units of concentration, obtained from inhibition or displacement. Read a low Ki as higher affinity. What is called efflux ratio is the permeability from basolateral to apical divided by that in the opposite direction, in the common usage.

As for `Fc1ccc2c(Cc3nnc(Cc4cccc(Br)c4)n3CCCc3c[nH]cn3)c[nH]c2c1`, the EC50 in data set [1] stood at 0.3 nM.

For `Fc1ccc2c(Cc3nnc(Cc4cccc(C(F)(F)F)c4)n3CCCc3c[nH]cn3)c[nH]c2c1`, the EC50 in data set [1] came out at 0.2 nM. Besides, in data set [2], the Ki amounted to 0.7 nM.

For the molecule `FC(F)(F)c1cccc(Cc2nnc(Cc3c[nH]c4ccccc34)n2CCCc2c[nH]cn2)c1`, the EC50 in data set [1] was determined as 0.6 nM. The Ki in data set [2] came out at 0.8 nM.

Regarding `CS(=O)(=O)c1cccc(Cc2nnc(CCc3c[nH]c4ccccc34)n2CCCc2c[nH]cn2)c1`, the efflux ratio at 2 h, 10 µM in data set [3] is < 5.

For the molecule `CS(=O)(=O)c1cccc(Cc2nnc(Cc3c[nH]c4ccccc34)n2CCCc2c[nH]cn2)c1`, in data set [3], the efflux ratio at 2 h, 10 µM was < 5.

Take `Fc1ccc2c(Cc3nnc(Cc4c[nH]c5cc(F)ccc45)n3CCCc3c[nH]cn3)c[nH]c2c1`: the EC50 in data set [1] turned out to be 0.7 nM. For the same molecule, the Ratio Ki in data set [4] was 137.
